Laboratory results as given in patent US4472320A (priority 1981, dated 1984).

Amino acid sequences for entries named in this document (tags omitted). Residues count along the entry.
UniProt P81908, whole entry: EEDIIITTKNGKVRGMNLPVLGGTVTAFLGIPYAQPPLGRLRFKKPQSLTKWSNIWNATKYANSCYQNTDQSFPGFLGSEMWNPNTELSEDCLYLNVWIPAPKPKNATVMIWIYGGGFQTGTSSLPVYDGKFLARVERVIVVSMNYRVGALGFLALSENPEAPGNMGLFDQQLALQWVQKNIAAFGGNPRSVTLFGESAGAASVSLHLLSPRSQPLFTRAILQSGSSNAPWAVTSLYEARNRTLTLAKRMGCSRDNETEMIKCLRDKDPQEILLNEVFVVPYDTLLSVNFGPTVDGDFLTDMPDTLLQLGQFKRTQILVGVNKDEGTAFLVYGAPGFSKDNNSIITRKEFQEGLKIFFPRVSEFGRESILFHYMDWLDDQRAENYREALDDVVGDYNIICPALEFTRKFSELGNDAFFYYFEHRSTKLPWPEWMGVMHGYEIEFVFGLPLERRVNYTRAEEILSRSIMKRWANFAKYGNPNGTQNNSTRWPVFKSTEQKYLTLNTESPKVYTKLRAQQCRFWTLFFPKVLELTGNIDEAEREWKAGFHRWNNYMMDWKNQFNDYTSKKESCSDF
UniProt O42275, 24-633 limits assumed: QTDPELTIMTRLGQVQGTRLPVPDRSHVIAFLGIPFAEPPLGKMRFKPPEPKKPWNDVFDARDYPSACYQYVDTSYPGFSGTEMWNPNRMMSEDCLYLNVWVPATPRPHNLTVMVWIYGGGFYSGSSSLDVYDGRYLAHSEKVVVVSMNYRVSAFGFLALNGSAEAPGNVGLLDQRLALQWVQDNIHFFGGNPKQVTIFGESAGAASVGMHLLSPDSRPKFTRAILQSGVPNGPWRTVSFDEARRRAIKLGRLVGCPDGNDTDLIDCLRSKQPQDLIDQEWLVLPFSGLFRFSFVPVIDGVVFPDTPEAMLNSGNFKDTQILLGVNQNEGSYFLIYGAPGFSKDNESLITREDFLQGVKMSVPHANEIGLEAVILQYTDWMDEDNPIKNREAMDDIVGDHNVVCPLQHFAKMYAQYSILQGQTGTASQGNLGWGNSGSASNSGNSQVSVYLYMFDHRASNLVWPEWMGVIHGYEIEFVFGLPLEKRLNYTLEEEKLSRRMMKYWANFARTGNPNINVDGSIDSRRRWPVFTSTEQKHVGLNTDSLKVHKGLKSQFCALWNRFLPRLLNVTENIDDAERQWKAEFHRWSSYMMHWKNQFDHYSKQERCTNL

What was measured:
[1] = target: BuChE, horse (butyrylcholinesterase, EC 3.1.1.8) (Equus caballus, UniProt P81908); assay: Inhibition and reactivation kinetics of horse serum BuChE by TDPI; format: biochemical
[2] = tested on: AChE from rat-brain homogenate; assay: Inhibition of rat-brain homogenate AChE by TDPI; conditions: incubated with AChE from rat-brain homogenate
[3] = tested on: Butyrylcholinesterase (BuChE, EC 3.1.1.8) from mice serum; assay: Inhibition of mice serum BuChE by TDPI
soman poisoning in mice = assay: Protection of mice against soman; conditions: in conjunction with anticholinergics and oxime
[4] = target: AChE, eel (acetylcholinesterase, EC 3.1.1.7) (Electrophorus electricus, UniProt O42275); assay: Inhibition and reactivation kinetics of eel AChE by TDPI; format: biochemical, electric eel
rat-hemidiaphragm = assay: Isolated rat-hemidiaphragm: AChE activity and tetanic tension under soman

Q: Which results are given for `C[C@@H]1CCO[P@@](=O)(Oc2cccc([N+](C)(C)C)c2)O1` (relative stereo)?
A: affinity to AChE (KI) relative to TDPI (AChE; 4-methyl isomers of III): decreased significantly relative to TDPI; kS (spontaneous reactivation) relative to TDPI (AChE; 4-methyl isomers of III): decreased significantly relative to TDPI; phosphorylation of AChE relative to TDPI (AChE; 4-methyl isomers of III): decreased significantly relative to TDPI

Q: For `C[N+](C)(C)c1cccc(OP2(=O)OCCCO2)c1`, which “time course of BuChE inhibition” value ([1]; horse serum BuChE) is on record?
A: Its value is “Steady state was not developed”.

Q: What about the “kr (reactivation by 2-PAM)” value ([1]; pH 7.0, BuChE, horse, 0.5 mM 2PAM, kS subtracted) of the same compound?
A: The value was 0.05 min⁻¹.

Q: And the “%-aging” value ([1]; pH 7.0, BuChE, horse, after 20 hr in presence of 0.5 mM TDPI)?
A: The value was 69%.

Q: And the “kS (spontaneous reactivation)” value ([1]; pH 7.0, BuChE, horse, from direct measurements)?
A: The value was 0.005 min⁻¹.

Q: And the “ki (ki = k'/KI, Scheme 1)” value ([1]; pH 7.0, BuChE, horse, from initial slopes)?
A: Its value is 300 M⁻¹ s⁻¹.

Q: What about the “time course of AChE inhibition” value [2] of the same compound?
A: Its value is “the decrease in enzyme activity approached a steady state”.

Q: And the “protection of AChE against irreversible phosphorylation” value (AChE; equal concentration/affinity ratio I/KI = 10, TDPI compared with TMPH (II))?
A: The value was “provided better protection of AChE against irreversible phosphroylation than II”.

Q: What about the Ki (AChE; read-out: Ki (Michaelis complex with AChE), non-covalent reversible complex AChE.TDPI) of the same compound?
A: Its Ki is 13 µM.

Q: And the “time course of BuChE inhibition” value [3]?
A: The value was “Steady state was not developed”.

Q: What about the protection against soman (soman poisoning in mice) of the same compound?
A: Its protection against soman is 5 ×LD50.

Q: And the “time course of AChE inhibition” value ([4]; incubated with AChE from electric eel)?
A: The value was “the decrease in enzyme activity approached a steady state”.

Q: And the “ki (ki = k'/KI, Scheme 1)” value ([4]; pH 7.0, AChE, eel)?
A: Its value is 140 M⁻¹ s⁻¹.

Q: And the “kr (reactivation by 2-PAM)” value ([4]; pH 7.0, AChE, eel, 0.5 mM 2PAM, kS subtracted)?
A: The value was 0.38 min⁻¹.

Q: What about the “%-aging” value ([4]; pH 7.0, AChE, eel, after 20 hr in presence of 0.5 mM TDPI) of the same compound?
A: The value was 2%.

Q: And the “kS (spontaneous reactivation)” value ([4]; pH 7.0, AChE, eel, from direct measurements)?
A: The value was 0.07 min⁻¹.

Q: What about the “rate of decrease of AChE activity in hemidiaphragm” value (rat-hemidiaphragm; TDPI added to isolated rat-hemidiaphragm) of the same compound?
A: Its value is “AChE activity decreased at a rate similar to AChE from either rats-brain homogenate or electric eel”.

Q: What about the “time to restoration of AChE activity to original level after removal by washing” value (rat-hemidiaphragm; isolated rat-hemidiaphragm) of the same compound?
A: Its value is 15 to 30 min.

Q: What about the “protection from irreversible block of tetanic tension caused by soman” value (rat-hemidiaphragm; pre-treated rat-hemidiaphragm) of the same compound?
A: Its value is “protected the rat-hemidiaphragm from irreversible block of tetanic tension”.

Q: `C[C@@H]1CCO[P@](=O)(Oc2cccc([N+](C)(C)C)c2)O1` (relative stereo) was tested. Which “affinity to AChE (KI) relative to TDPI” value (AChE; 4-methyl isomers of III) did it give?
A: Its value is “increased the affinity”.

Q: And the “kS (spontaneous reactivation) relative to TDPI” value (AChE; 4-methyl isomers of III)?
A: The value was “produced a decrease in kS”.
